Laboratory results from patent US20250320206A1, “STAT6 DEGRADERS” (Gilead Sciences, Inc., priority 2024, published 2025).
pEC50: −log10 of the molar value.

By UniProt entry, the sequences of proteins in these tests, tags left out.
UniProt P42226, whole entry: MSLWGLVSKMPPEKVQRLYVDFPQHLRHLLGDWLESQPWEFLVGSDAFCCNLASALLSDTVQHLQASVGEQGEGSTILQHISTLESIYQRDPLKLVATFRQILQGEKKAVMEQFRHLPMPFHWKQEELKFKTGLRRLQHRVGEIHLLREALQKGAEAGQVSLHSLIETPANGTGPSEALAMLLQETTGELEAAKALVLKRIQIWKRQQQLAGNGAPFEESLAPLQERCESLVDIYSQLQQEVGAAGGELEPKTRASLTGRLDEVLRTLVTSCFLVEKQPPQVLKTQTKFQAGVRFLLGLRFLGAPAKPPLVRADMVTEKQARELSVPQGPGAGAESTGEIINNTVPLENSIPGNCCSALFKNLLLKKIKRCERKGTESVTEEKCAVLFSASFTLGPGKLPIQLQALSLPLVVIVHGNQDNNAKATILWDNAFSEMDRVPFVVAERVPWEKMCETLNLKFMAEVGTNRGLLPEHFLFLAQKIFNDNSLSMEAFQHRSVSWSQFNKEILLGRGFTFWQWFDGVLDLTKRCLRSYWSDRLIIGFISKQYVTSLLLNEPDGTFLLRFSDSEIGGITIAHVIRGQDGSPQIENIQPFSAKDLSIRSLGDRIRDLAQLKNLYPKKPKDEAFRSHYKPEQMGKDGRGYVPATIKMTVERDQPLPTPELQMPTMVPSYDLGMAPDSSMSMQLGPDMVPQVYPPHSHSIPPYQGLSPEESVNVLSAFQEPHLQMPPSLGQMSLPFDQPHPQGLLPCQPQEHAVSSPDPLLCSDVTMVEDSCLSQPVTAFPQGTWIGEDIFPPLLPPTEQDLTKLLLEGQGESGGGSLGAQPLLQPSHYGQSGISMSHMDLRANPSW

Experiments:
[1] = test system: Eotaxin-3 release in human whole blood stimulated with IL-4; experiment: Human Whole Blood Eotaxin-3 Assay (IL-4 stimulated eotaxin-3 release); settings: read-out: Eotaxin-3 EC50, IL-4 stimulation, 48 h, values given for compounds with >80% Emax, geometric mean
Protocol: Human Whole Blood Eotaxin-3 Assay
This was a human whole blood assay using recombinant human Interleukin 4 to stimulate the blood and measuring the ability of the test compounds to inhibit eotaxin-3 release. The biological activities of the test compounds have been tested in human whole blood stimulated with IL-4 measuring Eotaxin-3 release. The test compounds were added to 384 well clear flat-bottom plate in a 4-fold serial dilution in triplicates using a liquid handler. Human whole blood stabilized in lithium-heparin tubes was added in a volume of 65 μL per well, resulting in a final DMSO concentration of 0.5%. The plate is incubated for 2 h at 37° C. under 5% CO2/95% air. Subsequently, 5 μL of recombinant human IL-4 (R&D Systems, cat #204-ILB) was added to the wells to a final concentration of […]. The plate was incubated for 48 h at 37° C. under 5% CO2/95% air. The plate was spun down for 10 minutes at 500×g and 20 μL supernatant was harvested and transferred to a 384 well v-bottom plate using a liquid handler and stored at −20° C. until further analysis. 10 μL supernatant was used to measure the level of Eotaxin-3 (CCL26) using Human Eotaxin-3 MSD kit from Mesocsale (Cat #K251UEK-4). The assay was performed according to the manufacture instructions.
The data from the human whole blood eotaxin-3 assay is shown in FIG. 2 for Examples 3u208, 3u246, 3u118, 3u119, 3u120, and 3u74 (where the effect in % is plotted against the test concentration in M on a log scale).

[2] = biological target: STAT6 (Homo sapiens, UniProt P42226); experiment: Stat6 Degrader Assay (HiBiT based, HeLa LgBiT clone 4.14); settings: read-out: STAT6 degradation DC50; HeLa LgBiT clone 4.14 HiBiT-STAT6, 4-24 h incubation; values given for compounds with >80% Emax; geometric mean
Protocol: This was a HiBit based assay. A HeLa cell line stably transfected with a small protein, LgBit (Large Bit) was obtained from Promega. These cells express endogenous STAT6. A small 11 amino acid gene sequence (HiBiT) was inserted in the STAT6 gene using CRISPR technology. Once STAT6 protein is expressed in the cells, the HiBiT sequence will bind the LgBit in the cells resulting in a functional NanoBiT protein, giving a luminescent tag to STAT6, see FIG. 2.
Single cell clones were prepared and the clone 4.14 was selected for the assay based on that clone showing high luminescence, high STAT6 phosphorylation upon stimulation with IL-4, and inhibition of luminescence when cells were treated with STAT6 siRNA.
HeLa LgBiT clone 4.14 cells were suspended in DMEM with 10% FCS, 1% Pen/Strep, Na-pyrovate and Hygromycin B, at a concentration of 1.25*105 cells pr mL. 5000 cells were added pr well of a 384 well plate and 20 nL of compound was added by Echo® liquid handler. NN6394A (terfenadine, a toxic compound) was added to control wells at 50 μM concentration to establish the assay window. In these wells the cells are dead which equals 100% degradation of STAT6.
After 4-24 h of incubation at 37° C. under 5% CO2/95% air, 5 μL substrate (Nano-GLO®) was added to the wells and the plates were centrifuged and incubated for 0.5 h.
The luminescence in the wells as a measure of non-degraded STAT6 was measured in a plate reader (BMG Pherastar FSX).
The dose-response curves for Examples 3u208, 3u246, 3u118, 3u119, 3u120, and 3u74 are shown in FIG. 1 (where percent degradation is plotted vs. test compound concentration in M on a log-scale).

Q: CNc1ccn(-c2ccnc3c2cc([C@H](C)N2CC=C(c4c(C)cc(C(=O)N5CCC(CN6CCN(Cc7cc8c(cc7F)N([C@H]7CCC(=O)NC7=O)C(=O)C8(C)C)C[C@@H]6C)CC5)cc4F)CC2)n3C)c(=O)c1 was tested. Which pEC50 [1] did it give?
A: 8.15

Q: With CNc1cc(=O)n(-c2ccnc3c2cc([C@H](C)N2CC=C(c4c(F)cc(C(=O)N5CCC(CN6CCN(Cc7ccc8c(c7)n(C7CC7)c(=O)n8[C@H]7CCC(=O)NC7=O)C[C@@H]6C)CC5)cc4F)CC2)n3C)cc1F as the compound, how does the pEC50 [1] read?
A: 8.85

Q: What about the DC50 [2] of the same compound?
A: 1 nM

Q: How did the pEC50 [1] turn out when Cc1cc(C(=O)N2CCC(CN3CCN(Cc4ccc5c(c4)C(C)(C)C(=O)N5[C@H]4CCC(=O)NC4=O)C[C@@H]3C)CC2)cc(F)c1C1=CCN([C@@H](C)c2cc3c(-n4cc(F)c(N)cc4=O)ccnc3n2C)CC1 was run?
A: 8.12

Q: What about the DC50 [2] of the same compound?
A: 2.5 nM

Q: Which results are given for CNc1cc(=O)n(-c2ccnc3c2cc(CN2CC=C(c4c(F)cc(C(=O)N5CCC(CN6CCN(Cc7ccc8c(c7)n(C7CC7)c(=O)n8[C@H]7CCC(=O)NC7=O)C[C@@H]6C)CC5)cc4F)CC2)n3C)cc1F?
A: pEC50 [1]: 8.35; DC50 [2]: 13.7 nM

Q: CNc1cc(=O)n(-c2ccnc3c2cc([C@H](C)N2CC=C(c4c(C)cc(C(=O)N(C)c5ccc(N6CCC(O)(Cc7ccc8c(c7)n(C)c(=O)n8C7CCC(=O)NC7=O)CC6)nc5)cc4F)CC2)n3C)cc1F (stereo partly shown) was tested. Which pEC50 [1] did it give?
A: 8.96

Q: What about the DC50 [2] of the same compound?
A: 2.7 nM

Q: With CNc1ccn(-c2ccnc3c2cc([C@H](C)N2CCC(c4ccc(C(=O)N5CCC(CN6CCN(Cc7ccc8c(c7)C(C)(C)C(=O)N8[C@H]7CCC(=O)NC7=O)C[C@@H]6C)CC5)cc4)CC2)n3C)c(=O)c1 as the compound, how does the pEC50 [1] read?
A: 8.43

Q: What about the DC50 [2] of the same compound?
A: 3.4 nM

Q: With CNc1ccn(-c2ccnc3c2cc([C@H](C)N2CC=C(c4c(C)cc(C(=O)N5CCC(CN6CCN(c7ccc8c(c7)n(C7CC7)c(=O)n8[C@H]7CCC(=O)NC7=O)CC6)CC5)cc4F)CC2)n3C)c(=O)c1 (single isomer, unassigned) [Example 3u279] as the compound, how does the pEC50 [1] read?
A: 8.51

Q: And the DC50 [2]?
A: 3.1 nM
